Earlier results in article PMC4955735 (Anesthesiology, 2016).

Conditions: indicator complex of the competition assay; cited from earlier work

## C[C@]12N3Cc4c(c(OCCCS(=O)(=O)[O-])c5ccccc5c4OCCCS(=O)(=O)[O-])CN1C(=O)N1CN4C(=O)N5CN6C(=O)N7CN8C(=O)N9Cc%10c(c(OCCCS(=O)(=O)[O-])c%11ccccc%11c%10OCCCS(=O)(=O)[O-])CN%10C(=O)N(CN%11C(=O)N(CN%12C(=O)N(CN(C3=O)[C@]12C)[C@@H]4[C@H]%125)[C@@H]6[C@H]%117)[C@]8(C)[C@@]9%10C.[Na+].[Na+].[Na+].[Na+] [Calabadion 2]
  Ka of calabadion 2•Rhodamine 6G complex: 2.3 ± 0.2 x 10^6 M^−1
